Results as given in article PMC3551298 (Arteriosclerosis, thrombosis, and vascular biology, 2012).

By UniProt entry, the sequences of proteins in these tests, tags left out. Residues count along the entry.
UniProt P26022, 18-381: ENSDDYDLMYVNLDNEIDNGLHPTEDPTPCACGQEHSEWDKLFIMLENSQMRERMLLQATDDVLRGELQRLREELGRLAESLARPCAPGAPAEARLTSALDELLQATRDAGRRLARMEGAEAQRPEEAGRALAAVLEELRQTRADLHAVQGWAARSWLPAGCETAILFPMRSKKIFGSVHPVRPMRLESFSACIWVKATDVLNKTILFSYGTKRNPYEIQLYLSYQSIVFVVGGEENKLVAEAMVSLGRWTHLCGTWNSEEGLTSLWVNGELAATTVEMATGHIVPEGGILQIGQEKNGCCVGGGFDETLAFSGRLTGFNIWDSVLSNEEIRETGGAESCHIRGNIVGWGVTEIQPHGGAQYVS

Tests used:
[1] = target: long pentraxin 3 (PTX3), full length (human, UniProt P26022); experiment: SPR
[2] = target: biotinylated PTX3 (bPTX3) (human, UniProt P26022, biotin (biotinylated; sites not stated)); experiment: ELISA

Kd [1]: 314 nM
IC50 [2]: ~100 nM
B1: full-length human TSG-6 (natural protein)
chain: WGFKDGIFHNSIWLERAAGVYHREARSGKYKLTYAEAKAVCEFEGGHLATYKQLEAARKIGFHVCAAGWMAKGRVGYPIVKPGPNCGFGKTGIIDYGIRLNRSERWDAYCYNPHAKECGGVFTDPKQIFKSPGFPNEYEDNQICYWHIRLKYGQRIHLSFLDFDLEDDPGCLADYVEIYDSYDDVHGFVGRYCGDELPDDIISTGNVMTLKFLSDASVTAGGFQIKYVAMDPVSKSSQGKNTSTTSTGNKNFLAGRFSHL
